Results as given in ChEMBL document CHEMBL1649277, “Inhibition of herpesvirus replication by 5-substituted 4'-thiopyrimidine nucleosides” (Antimicrob Agents Chemother, 2009).

Assay: Selectivity index, ratio of CC50 for HFF to EC50 for HSV2 MS infected in HFF

Nc1nc2c(ncn2COCCO)c(=O)[nH]1 [ACYCLOVIR]
Ratio CC50/EC50: > 150

Nc1ccn(C[C@@H](CO)OCP(=O)(O)O)c(=O)n1.O.O [CIDOFOVIR]
Ratio CC50/EC50: > 11
